Data: ChEMBL document CHEMBL1123259, “Probes for narcotic receptor mediated phenomena. 13. Potential irreversible narcotic antagonist-based ligands derived from 6,14-endo-ethenotetrahydronororipavine with 7-(methoxyfumaroyl)amino, (bromoacetyl)amino, or isothiocyanate electrophiles: chemistry, biochemistry, and pharmacology” (1986)

Chains of the proteins cited; added tags and fusions are not shown.
UniProt P33533, whole entry: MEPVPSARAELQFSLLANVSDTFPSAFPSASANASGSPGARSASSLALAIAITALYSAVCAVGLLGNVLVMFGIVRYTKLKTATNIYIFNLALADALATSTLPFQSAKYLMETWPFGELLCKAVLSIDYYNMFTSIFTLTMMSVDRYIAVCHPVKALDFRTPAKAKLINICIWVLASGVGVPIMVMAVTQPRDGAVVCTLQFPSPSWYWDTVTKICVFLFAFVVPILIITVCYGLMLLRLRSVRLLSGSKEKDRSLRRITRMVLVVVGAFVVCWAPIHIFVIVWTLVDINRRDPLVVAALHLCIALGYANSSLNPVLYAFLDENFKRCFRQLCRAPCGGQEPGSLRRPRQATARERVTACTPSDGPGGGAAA
UniProt P34975, whole entry: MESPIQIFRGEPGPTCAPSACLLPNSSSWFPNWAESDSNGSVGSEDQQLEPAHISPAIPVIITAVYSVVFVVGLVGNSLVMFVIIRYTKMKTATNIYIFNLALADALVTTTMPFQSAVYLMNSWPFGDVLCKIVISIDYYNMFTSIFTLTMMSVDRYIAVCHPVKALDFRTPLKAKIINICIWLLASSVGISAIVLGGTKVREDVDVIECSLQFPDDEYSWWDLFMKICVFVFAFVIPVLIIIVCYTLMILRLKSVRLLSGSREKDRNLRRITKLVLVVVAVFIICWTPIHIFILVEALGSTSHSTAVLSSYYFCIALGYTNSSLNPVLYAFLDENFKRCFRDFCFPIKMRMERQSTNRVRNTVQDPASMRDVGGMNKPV
UniProt P33535, whole entry: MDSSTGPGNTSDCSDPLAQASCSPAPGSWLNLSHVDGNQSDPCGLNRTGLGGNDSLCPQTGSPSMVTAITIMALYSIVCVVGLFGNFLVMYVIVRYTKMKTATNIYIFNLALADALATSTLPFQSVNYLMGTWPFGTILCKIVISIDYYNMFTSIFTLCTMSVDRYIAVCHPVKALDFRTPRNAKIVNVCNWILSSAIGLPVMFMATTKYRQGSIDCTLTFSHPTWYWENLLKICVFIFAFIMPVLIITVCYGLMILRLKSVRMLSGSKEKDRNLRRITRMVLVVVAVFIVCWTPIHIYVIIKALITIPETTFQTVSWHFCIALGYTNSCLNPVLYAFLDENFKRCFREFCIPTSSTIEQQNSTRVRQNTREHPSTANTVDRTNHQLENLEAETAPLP

Key:
Mus musculus = assay: In vivo antagonist/agonist nature after subcutaneous administration to mice using tail flick (TF) antagonist assay vs. morphine
Opioid receptor = Opioid receptor (Rattus norvegicus, UniProt P33533+P34975+P33535); assay: Displacement of [3H]dalamid ([D-Ala2,Met5] enkephalinamide) from opioid receptors of rat brain membrane

| Compound | ED50 (Mus musculus) [mg/kg] | EC50 (Opioid receptor) [nM] |
| --- | --- | --- |
| CCCN1CC[C@]23c4c5ccc(O)c4O[C@H]2[C@@]2(OC)C=C[C@@]3(C[C@@H]2NC(=O)CBr)[C@H]1C5 | 0.6 | 130 |
| CCCN1CC[C@]23c4c5ccc(O)c4O[C@H]2[C@@]2(OC)C=C[C@@]3(C[C@@H]2NC(=O)/C=C/C(=O)OC)[C@H]1C5 | 1.8 | 180 |
| COC12C=C[C@@]3(C[C@@H]1N=S)[C@H]1Cc4ccc(O)c5c4[C@@]3(CCN1CC1CC1)[C@H]2O5.O=C(O)C(=O)O |  | 7 |
| CO[C@]12C=C[C@@]3(C[C@@H]1N)[C@H]1Cc4ccc(O)c5c4[C@@]3(CCN1CC1CC1)[C@H]2O5 |  | 6 |
| COC(=O)/C=C/C(=O)N[C@H]1C[C@@]23C=CC1(OC)[C@@H]1Oc4c(O)ccc5c4[C@@]12CCN(CC1CC1)[C@@H]3C5.O=C(O)C(=O)O |  | 6 |
| CO[C@]12C=C[C@@]3(C[C@@H]1NC(=O)CBr)[C@H]1Cc4ccc(O)c5c4[C@@]3(CCN1CC1CC1)[C@H]2O5 |  | 7 |
| CCCN1CC[C@]23c4c5ccc(O)c4O[C@H]2C2(OC)C=C[C@@]3(C[C@@H]2N)[C@H]1C5.O=C(O)C(=O)O |  | 100 |
| CCCN1CC[C@]23c4c5ccc(O)c4O[C@H]2C2(OC)C=C[C@@]3(C[C@@H]2N=S)[C@H]1C5.O=C(O)C(=O)O | 0.7 | 130 |
